Test results from patent publication US5538968A, “Geneserine derivatives processes as cholinesterase inhibitors” (priority 1991, dated 1996).

System: acetylcholinesterase (AchE) in the brain
Experiment: Time course of inhibition of brain acetylcholinesterase (AchE) in the rat after s.c. administration (Ellman acetylthiocholine method, ex vivo)
Parameters: species or system rat (male Crl:CD (SD) BR)
Protocol: 1. Acetylcholinesterase inhibition
The time course of inhibition of acetylcholinesterase (AchE) in the brain was assessed in male Crl:CD (SD) BR rats (Charles River Italia), weighing between 150-250 g.
The test substances were administered by s.c. route, dissolved in 2 ml/kg of sterile saline. 9 animals/group/time were used.
Controls received the vehicle only.
At various intervals (10-60-120-240 min) after administration the rats were sacrificed by decapitation and the brains were rapidly removed, weighed and immediately placed in 1 ml of phosphate buffer 0.1M, pH 8.0, added with 1% Triton 100 (Merck).
After homogenization and centrifugation at 19943 g for 15 min at 4° C. the surnatant was separated and used for the determination of AchE activity according to the acetyltiocholine method described by Ellmann (Ellman G. L. et al., Biochem. Pharmacol. 7, 88, 1961).
The activity concentrations obtained (U/l surnatant) were individually corrected for the brain weight.
Compounds were given by s.c. route, dissolved in 2 ml/kg of saline. Brain
were homogenized in 2 ml of phosphate buffer 0.1 M, pH 8.0 added with 1%
Triton 100. AchE activity was determined in the surnatant after
centrifugation. Concentrations values were corrected for the brain weight
Statistical significance vs control ("t" Student's test): […]

Compound: CNC(=O)Oc1ccc2c(c1)[C@]1(C)CCN(C)[C@@H]1N2C [Physostigmine]
- Max % inhib. of brain acetylcholinesterase (0.4 mg/kg s.c.): 53%
- T max (time of the maximal inhibition) (0.4 mg/kg s.c.): 10 min
- Brain acetylcholinesterase % inhib. (0.4 mg/kg s.c., 10 min, ** P < 0.01): 53%
- Brain acetylcholinesterase % inhib. (0.4 mg/kg s.c., 60 min, ** P < 0.01): 51%
- Brain acetylcholinesterase % inhib. (0.4 mg/kg s.c., 120 min, ** P < 0.01): 34%
- Brain acetylcholinesterase % inhib. (0.4 mg/kg s.c., 240 min): 11%
- Factor of reduction of effect 120 min. after the treatment (s.c., 120 min vs peak): 1.5-2
- Onset of effect compared with CHF 2060 (s.c., vs 9 mg/kg CHF 2060, comparable AUC and maximum inhibition): more rapid effect
